Results: ChEMBL document CHEMBL6127058, “Overview of the PRMT6 modulators in cancer treatment: Current progress and emerged opportunity” (Eur J Med Chem, 2024)

Sequences of proteins named here, by UniProt entry; tags and fusion partners are left off.
UniProt Q96LA8, whole entry: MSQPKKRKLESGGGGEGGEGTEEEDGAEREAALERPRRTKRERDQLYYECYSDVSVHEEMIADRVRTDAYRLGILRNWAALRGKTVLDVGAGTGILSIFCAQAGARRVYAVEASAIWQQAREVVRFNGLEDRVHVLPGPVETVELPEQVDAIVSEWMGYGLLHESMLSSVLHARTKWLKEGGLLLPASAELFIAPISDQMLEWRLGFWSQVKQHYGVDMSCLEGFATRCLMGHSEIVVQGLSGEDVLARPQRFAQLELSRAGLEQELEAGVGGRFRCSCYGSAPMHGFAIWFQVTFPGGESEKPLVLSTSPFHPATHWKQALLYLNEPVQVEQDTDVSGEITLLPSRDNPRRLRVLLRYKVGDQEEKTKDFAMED

Target: Protein arginine N-methyltransferase 6 (Homo sapiens, UniProt Q96LA8)

Compound Cc1cc(C)cc([C@H]2c3cc(C)ccc3NC(=O)CN2C(=O)c2ccc(Br)s2)c1 has an IC50 of over 50 nM.
